## Reported water solubility values for industrial, environmental and drug-like chemicals

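The numbers are reported measurements, compiled and curated for the OPERA QSAR suite. The files give a single number for a compound and property, which may rest on several reports. Conditions of the individual experiments are not part of the data. Where a salt, mixture or single isomer is drawn, the source does not say that exactly this form was tested. Some upstream entries may be estimates or bounds without being marked so.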

Water solubility is log10 of mol/L, nominally at 25 °C; higher is more soluble.

compound,log solubility (log10 mol/L)
CCCCc1nc(C=O)c(Cl)[nH]1,-2.199
N=C(N)c1ccc(OCCCCCOc2ccc(C(=N)N)cc2)cc1,-4.159
Cc1nc2n(c(=O)c1CCN1CCC(/C(=N/O)c3ccc(F)cc3F)CC1)CCCC2,-3.551
O=C(NN=Cc1ccc([N+](=O)[O-])o1)c1cccc([N+](=O)[O-])c1,-4.992
Nc1cnc2ncnc(N)c2n1,-3.59
CCCCCCc1ccc(O)cc1O,-2.59
O=C(O)Cc1ccc([N+](=O)[O-])cc1,-1.937
Clc1cccc(Cl)c1NC1=NCCN1,-0.1
Cc1[nH]c2ccccc2c1/N=N/c1cc(Cl)c(S(=O)(=O)NCCS(=O)(=O)[O-])cc1Cl.[Na+],-3.663
CN(C)C(=O)Nc1ccc(SC(F)(F)Cl)c(Cl)c1,-0.635
CC(C)(C)C(=O)OCn1ncc2c(O)ncnc21,-2.682
CCCC(c1cc(C(C)(C)C)c(O)cc1C)c1cc(C(C)(C)C)c(O)cc1C,-7.981
C=CC(=O)OCC(CC)(COCC(CC)(COC(=O)C=C)COC(=O)C=C)COC(=O)C=C,-4.493
Cc1ccccc1OCC1CO1 (stereo not drawn),-2.253
CC(CCl)OP(=O)(OCC(CCl)(CCl)COP(=O)(OC(C)CCl)OC(C)CCl)OC(C)CCl (stereo not drawn),-5.204
CCC(=O)OC1CCC(C(C)C)CC1 (stereo not drawn),-4.173
C[C@]12C=CC(=O)N[C@@H]1CC[C@@H]1[C@@H]2CC[C@]2(C)[C@@H](C(=O)Nc3cc(C(F)(F)F)ccc3C(F)(F)F)CC[C@@H]12,-5.765
O=C(Nc1ccc(Cc2ccc(NC(=O)NC3CCCCC3)cc2)cc1)NC1CCCCC1,-7.904
Oc1ccc(CCc2ccccc2)c(O)c1,-2.718
N#Cc1ccc(C(F)(F)F)cc1[N+](=O)[O-],-2.471
C#CCOC(=O)NCCCC,-1.501
CC(C)=CCC[C@](C)(O)[C@@H]1CC=C(C)CC1,-3.952
CN1CCN(c2cc3c(cc2F)c(=O)c(C(=O)O)cn3-c2ccc(F)cc2)CC1,-2.48
O=S(=O)(O)C(S(=O)(=O)O)S(=O)(=O)O,-2.489
C#C[C@]1(O)CC[C@H]2[C@@H]3CCc4cc(OC5CCCC5)ccc4[C@H]3CC[C@@]21C,-5.366
CC(=O)Nc1ccc(S(=O)(=O)CCO)cc1,-2.196
OCC1CC2CC1C1CCCC21 (stereo not drawn),-2.619
CC/C(=C\CC1CC=C(C)C1(C)C)CO (stereo partly drawn),-3.907
CC1=CC(C)OC(C(C)c2ccccc2)C1 (stereo not drawn),-4.08
c1ccc(CC2=NCCN2)cc1,-2.071
CC(C)SC(C)C,-2.24
Cc1ccc(S(=O)(=O)n2cc(Br)c3cc(F)cnc32)cc1,-6.629
S=C(SSSSSSC(=S)N1CCCCC1)N1CCCCC1,-7.632
CCCCCCCC(O)=NCCCC[C@H](N)C(=O)O,0.058
O=S(=O)([O-])c1cc(S(=O)(=O)O)cc2nc(-c3ccc(-c4nc5cc(S(=O)(=O)O)cc(S(=O)(=O)[O-])c5[nH]4)cc3)[nH]c12.[Na+].[Na+],-2.528
CCCCCCCC[N+](CCCCCCCC)(CCCCCCCC)CCCCCCCC.[Br-],-4.276
NC(=O)NN=Cc1ccc([N+](=O)[O-])o1,-2.971
C=C(C)C(=O)OC1CCCCC1,-3.095
O=S(=O)(O)c1cc(Nc2nc(Nc3ccccc3)nc(N(CCO)CCO)n2)ccc1C=Cc1ccc(Nc2nc(Nc3ccccc3)nc(N(CCO)CCO)n2)cc1S(=O)(=O)O,-1.059
C=CC(=O)OCCCCCCCCCCCCCCCC,-7.171
O=[N+]([O-])c1ccc([O-])c(/N=N/c2c([O-])ccc3ccccc23)c1.O=[N+]([O-])c1ccc([O-])c(/N=N/c2c([O-])ccc3ccccc23)c1.[Cr+3].[Na+],-4.477

The 5 lowest values of log solubility among the entries above:

compound,log solubility (log10 mol/L)
CCCC(c1cc(C(C)(C)C)c(O)cc1C)c1cc(C(C)(C)C)c(O)cc1C,-7.981
O=C(Nc1ccc(Cc2ccc(NC(=O)NC3CCCCC3)cc2)cc1)NC1CCCCC1,-7.904
S=C(SSSSSSC(=S)N1CCCCC1)N1CCCCC1,-7.632
C=CC(=O)OCCCCCCCCCCCCCCCC,-7.171
Cc1ccc(S(=O)(=O)n2cc(Br)c3cc(F)cnc32)cc1,-6.629

From the experimental data distributed with OPERA 2.9.